Experimental data taken from patent publication US20080234310A1, “Methods and Compositions for Slowing Aging” (priority 2003, published 2008).

System: ion channels associated with glutamate receptors
Assay: Glutamate-induced uptake of 45Ca into rat brain synaptosomes (calcium-blocking properties)
Format: biochemical
Details: glutamate-induced 45Ca uptake, K(43/21); compound 5 μM; 5 min at 30° C.
Protocol: Evaluation of the calcium-blocking properties of the compounds was conducted with P2-fraction of synaptosomes, which were isolated from the brain of newborn (8-11 days) rats according to the protocol described in [Bachurin et al. Neuroprotective and cognition enhancing properties of MK-801 flexible analogs. Structure-activity relationships.//Ann. N.Y. Acad. Sci., 2001, v. 939, pp. 219-235]. In this test, the ability of the compounds to inhibit a specific uptake of calcium ions via ion channels associated with glutamate receptors was determined.
Synaptosomes were placed into the incubation buffer A (132 mM NaCl, 5 mM KCl, 5 mM HEPES) and were kept at 0° C. during the entire experiment. Aliquots of synaptosomes (50 μl) were placed in the media A, containing investigated compounds and a preparation of the radiolabeled calcium, ^45Ca. The calcium uptake was stimulated by the introduction into the media of the 20 μl of the 10 mM solution of glutamate. After a 5 min incubation at 30° C. the reaction was interrupted by a filtration through GF/B filters, which were then triple washed with the cold buffer B (145 mM KCl, 10 mM tris, 5 mM trilon B). Then, filters were subjects for the detection of the radiolabeled calcium. The measurement was conducted using a scintillation counter ‘SL-4000 Intertechnic”. […] A specific calcium uptake was calculated using the following equation […]

% Ca to control: 40.5 ± 1.0%
SMILES: Cc1ccc2c(c1)[C@H]1CN(C)CC[C@H]1N2.Cl.Cl (racemic) [Compound 1, cis-(±)-2,8-dimethyl-2,3,4,4a,5,9b-hexahydro-1H-pyrido(4,3-b)indol dihydrochloride]
